Experiments:
[1] = system: male ob/ob mice; assay: Chronic treatment of ob/ob mice: adipose tissue depot mass; type: in vivo; settings: after 4 weeks of treatment, n=4
Description: (§1) 11-week old male ob/ob mice were individually caged and given a standard lab chow (4% fat) with free access to food and water. Animals were assigned to a treatment group (n=7-8, average weight 54.3+/−0.3 g per group), kept on a 12 hour dark cycle (6 PM to 6 AM), and injected each day between 7 and 9 AM. Chow consumed by each animal was weighed twice weekly. All animals received treatments IP with an injection volume of 0.1 ml. TSH was administered at 267 μg/kg, and the H3-AR agonist CL 316,243 at 0.75 mg/kg. Thyroid hormone (T4) was administered at 1.5 μg/mouse for 4 days, reduced to 1 [μg/mouse for 10 days, and returned to 1.5 μg/mouse for the next 14 days. The vehicle controls received sterile saline. TSH was obtained from Genzyme Pharmaceuticals, (Thyrogen®, catalog number 36778; Genzyme Corporation, Cambridge, Mass.), CL316,243 from Sigma Biochemicals, and T4 obtained from Calbiochem, Inc. All blood draws were performed by retro-orbital puncture under isoflurane anesthesia.
Four animals from each group were analyzed for evaluation of changes in adipose tissue depot mass after 4 weeks of treatment. Following sacrifice, brown scapular fat (IBAT) and intra-abdominal fat were dissected and the tissues weighed. […] Elevated thyroid hormone levels are known to act to stimulate]BAT. […] Mesangial fat is white adipose tissue and is only readily visualized and dissected in obese mice. […]

[2] = system: male ob/ob mice; assay: Chronic treatment of ob/ob mice: body weight and food intake; type: in vivo; settings: daily IP treatment
Description: as §1
Body weight changes were assessed as the percentage increase in body weight from the beginning of the study. The weight in the vehicle group increased 8.8+/−0.6%.

[3] = system: male ob/ob mice; assay: Chronic treatment of ob/ob mice: liver steatosis histology score; type: in vivo; settings: H&E sections, n=4, vehicle score 4
Description: as §1
Liver sections were dissected from all treatment groups described above and mounted in paraffin following fixation with NBS-formalin. […] The extent of liver steatosis was evaluated on a four-point scale, […], with zero displaying no signs of liver steatotosis, and 4, representing pronounced macrovesicular and microvesicular steatosis. […]

[4] = system: male ob/ob mice; assay: Chronic treatment of ob/ob mice: serum lipid analysis; type: in vivo; settings: 5 weeks of treatment, fasted 4 hours
Description: as §1
The study set used for the IPGTT was treated an additional 7 days before sacrifice (total treatment time of 5 weeks). Subject animals were fasted for 4 hours at the beginning of the light cycle, and serum was obtained at sacrifice under isoflurane anesthesia. Triglyceride and total cholesterol levels were determined with the Cholestech LDX blood analyzer (Cholestech Corporation, Hayward Calif.). […]

[5] = system: male ob/ob mice; assay: Acute stimulation of lipolysis in vivo (serum glycerol and FFA); settings: for change from baseline in serum FFA / change from baseline in serum glycerol: TSH 300 μg/kg, overnight fast, SEM
Description: TSH, the β3-adrenoreceptor agonist CL 316,243 (CL), and saline vehicle were examined for stimulation of lipolysis in mice following an overnight fast. Mice (n=7-8/group) were bled immediately before IP injection of TSH (300 μg/kg), CL (1 mg/kg), or vehicle, and blood sampled by retro orbital draws at 2 and 4 hours post-injection. Lipolysis was assessed as the change in serum glycerol or FFA compared to baseline. […] TSH administration stimulated increased serum glycerol levels at 2 and 4 hours, compared to the vehicle controls (148+/−23, (p=. 09) and 165+/−15 μg/ml (p<. 001) versus 80+/−29 and −62+/−14). TSH increased serum FFA 1,477+/−219 (p<. 001) and 1506+/−94 (p<. 001) at 2 and 4 hours compared to vehicle values −20+/−77 and ˜466+/−67, respectively (all errors are standard error of the mean).
C57BL/6 male ob/ob mice, age 10 weeks, were grouped to normalize weight (n=7-8 for each treatment; average group weight=37.8 g+/−0.4 g). Mice were housed individually for 18 hours prior to treatment, at which time food was withdrawn, with free access to water given. At approximately 8 a.m., the subjects were anesthetized with halothane and blood samples taken by retro-orbital eye bleeds. The blood was allowed to clot, and the serum was separated by centrifugation and frozen for later analysis. Test substances were administered by IP injection in a volume of 0.1 ml, and the animals replaced in their cages for 2 hours with free access to water. At 2 hours, the mice were sacrificed and blood drawn by cardiac puncture.
For measuring free fatty acids in serum, the method previously described for measuring free fatty acids in conditioned medium was followed, with the following modifications. Wako reagents A and B were reconstituted to 2× the recommended concentration. 75 μl of Wako reagent A were added to 5 μl of oleic acid standard plus 5 μl of water. 75 μl of Wako reagent A were added to 5 μl of serum plus 5 μl of methanol (to mirror the oleic acid standard conditions). The 96-well plates were incubated at 37° C. for 10 minutes. 150 μl of Wako reagent B were added to each well. The 96-well plates were incubated at 37° C. for 10 minutes. The 96-well plates were allowed to sit at room temperature for 5 minutes. The 96-well plates were centrifuged in a Beckman Coulter Allegra 6R centrifuge at 3250×g for 5 minutes to remove air bubbles. The absorbance at 530 nm was measured on the Wallac Victor2 Multilabel counter.
For measuring glycerol in serum, the method previously described for measuring glycerol in conditioned medium was followed, with the modifications described below.
Sigma reagent A was reconstituted to 0.5× the recommended concentration. 200 μl of Sigma reagent A were added to 10 μl of glycerol standard. 200 μl of Sigma reagent A were added to 5 μl of serum plus 5 μl of water. The 96-well plates were incubated for 15 minutes at room temperature. The 96-well plates were centrifuged in a Beckman Coulter Allegra 6R centrifuge at 3250×g for 5 minutes to remove air bubbles. The absorbance at 530 nm was measured on the Wallac Victor2 Multilabel counter.

## TSH: ~30 kDa glycoprotein of two non-covalently linked alpha and beta subunits; Thyrogen, Genzyme Corporation
[1]
  brown scapular fat (IBAT) mass: 1.25 ± 0.13 g
  mesangial white fat depot weight: 1.11 ± 0.03 g
[2]; 28 days
  percentage increase in body weight from the beginning of the study: 4.6+/−2.4%
[2]; one month
  members of the group with an overall decrease in weight: 3 of the 8
[3]
  average liver steatosis score: 2
[4]
  serum triglyceride: 80 ± 10 mg/dL
  total cholesterol: 124 ± 16 mg/dL
[5]; 4-hour time point, TSH 300 μg/kg vs CL 316,243 1 mg/kg
  serum FFA compared with β3-AR agonist: significant increases over the P3-AR agonist
[5]; 2 hours post IP injection
  change from baseline in serum FFA: 1,477+/−219 μg/ml
  change from baseline in serum glycerol: 148 ± 23 µg/mL
[5]; 4 hours post IP injection
  change from baseline in serum FFA: 1506 ± 94 µg/mL
  change from baseline in serum glycerol: 165 ± 15 µg/mL
